From PMC7925596 come the findings set out here.

The chains are these.
B1: mNeonGreen C-terminally fused to the native T3 targeting peptide [M. xanthus] / Myxococcus xanthus encapsulin (T3 encapsulin shell) [M. xanthus] (parent)
chain 1: PLTVGSLRRGG
chain 2: MPDFLGHAENPLREEEWARLNETVIQVARRSLVGRRILDIYGPLGAGVQTVPYDEFQGVSPGAVDIVGEQETAMVFTDARKFKTIPIIYKDFLLHWRDIEAARTHNMPLDVSAAAGAAALCAQQEDELIFYGDARLGYEGLMTANGRLTVPLGDWTSPGGGFQAIVEATRKLNEQGHFGPYAVVLSPRLYSQLHRIYEKTGVLEIETIRQLASDGVYQSNRLRGESGVVVSTGRENMDLAVSMDMVAAYLGASRMNHPFRVLEALLLRIKHPDAICTLEGAGATERR

The variants in this test derive from B1. The test can be described thus: bulk fluorescence measurement of purified encapsulins loaded with mNeonGreen-TP cargo. The note with it: parent: 100, read off a plot.
For the variant chain 1 PLTVGSLRRWG, the percent of parent stood at 15%.

In the case of chain 1 PLTVGSLRAGG, the percent of parent is 18%.
